# Experimental data taken from PubChem BioAssay AID504466 (National Center for Advancing Translational Sciences (NCATS), 2011).
# The entries are a selection whose mix differs from that of the whole data set. Inconclusive results are not listed. The source made the active and inactive calls. Calls come from the whole dose curve; as a rule, active = well fitted activation curve with a large enough effect; inconclusive = small, poorly fitted or top-dose-only effect; inactive = no such curve, though single readings can be large or run the other way.
# Experiment: qHTS screen for small molecules that induce genotoxicity in human embryonic kidney (HEK293T) cells expressing luciferase-tagged ELG1; note: % of control where 0% means no effect; nearly all actives have a fitted effect of over 60% in size
# Conditions: HEK293T ELG1-luciferase reporter, luminescence, 16 h; at 46 µM (top of the series)
# Text: NIH Molecular Libraries Probe Production Network [MLPCN] NIH Chemical Genomics Center [NCGC] MLPCN Grant: 1 R03 MH092164-01 Assay Provider: Kyungjae Myung, NHGRI, NIH Keywords: MLPCN, qHTS, NCGC, genotoxicity, cancer Assay Overview: Cancer cells divide rapidly compared to normal cells in the body. During cell division, cancer cells need to duplicate their genome by DNA replication. The failure of genome duplication leads to cancer cells' death. Therefore, inhibitors of DNA replication could specifically kill cancer cells. Based on this concept, many chemotherapeutic agents were developed and have been used to treat cancer patients. However, there are a limited number of agents available in the clinical setting, and some of those that do exist have low efficacy and severe side effects. Therefore, if we can find the compounds that effectively block DNA replication either by directly damaging DNA or by inhibiting other cellular mechanisms, the options for cancer treatment will be broadened. With this in mind, we developed a quantitative high-throughput ELG1-luciferase reporter gene assay. Since the level of human ELG1 protein is enhanced in response to genetic stresses, increases in luciferase activity can be used to identify compounds that cause genetic stress.
# Assay Protocol Summary: For genotoxicity screening, 2,000 cells in 5 uL/well were dispensed into white, solid-bottom 1536-well plates using a solenoid-based dispenser. Following transfer of 23 nL compound or DMSO vehicle by a pin tool, the plates were incubated 16 hr at 37 °C and 5% CO2. 5 ul ONE-Glo (Promega) was then added to each plate and following a 30 min incubation at room temperature, luciferase activity was quantified on a ViewLux CCD-based plate reader.
row,SMILES,"activity change, positive = activation"
1,Cc1ccc(OP(=O)(Nc2nccs2)Oc2ccc(C)cc2)cc1,inactive: 0.497%
2,COc1ccccc1OP(=O)(Nc1ccc(C)cn1)Oc1ccccc1OC,inactive: -4.71%
3,CN1CCCC(OC(=O)C(c2ccccc2)c2ccccc2)C1 (stereo not given),inactive: -0.0281%
4,Clc1ccc(Cl)c(NC2=NCC(CBr)S2)c1 (stereo not given),inactive: -0.546%
5,CC(=O)c1ccc(N2CC2c2ccncc2)cc1 (stereo not given),inactive: -0.609%
6,C[C@H]1OP(=O)(Oc2ccccc2)C[C@@H]2O[C@@H]21 (stereo not given in full),inactive: -2.58%
7,C[C@@H]1C=CCP(=O)(Oc2ccccc2)O1 (stereo not given in full),inactive: 3.36%
8,Cc1ccccc1CN(C)C(=O)COC(=O)C(O)(c1ccccc1)c1ccccc1,inactive: -2.17%
9,CC(=O)Nc1ccc(Oc2c([N+](=O)[O-])cc([N+](=O)[O-])cc2[N+](=O)[O-])cc1,inactive: 1.75%
10,CC(=O)Nc1ccc([As](=O)(O)O)c(O)c1,inactive: -2.1%
11,CCOc1ccc(C2=NCC(CBr)S2)cc1 (stereo not given),inactive: 11.7%
12,CC(C)(C)C(=O)NC(Sc1ccccc1)C(Cl)(Cl)Cl (stereo not given),inactive: 2.04%
13,Cc1ccc(OP(=O)(Nc2ccccn2)Oc2ccc(C)cc2)cc1,inactive: -7.49%
14,CC(=O)NC(SC(=S)N(CC(C)C)CC(C)C)C(Cl)(Cl)Cl (stereo not given),inactive: -0.76%
15,COC(=O)c1cc2c(s1)N=C(c1ccccc1)N(C)P2(=O)N1CCOCC1 (stereo not given),inactive: -1.06%
16,CCC(=O)N1C2C3N(C(=O)CC)C1C1N(C(=O)CC)C(C(N1C(=O)CC)N3C(=O)CC)N2C(=O)CC,inactive: 0.078%
17,O=C(OC1CN2CCC1CC2)c1ccccc1 (stereo not given),inactive: 0.0896%
18,O=c1c2cc([N+](=O)[O-])ccc2[nH]c2c([N+](=O)[O-])cc([N+](=O)[O-])cc12,inactive: -9.69%
19,CN(C)C(=O)Oc1noc2ccccc12,inactive: 0.445%
20,CC(NC(=O)COC(=O)C(O)(c1ccccc1)c1ccccc1)c1ccccc1 (stereo not given),inactive: 0.499%

row,SMILES,"activity change, positive = activation"
1,Cc1ccccc1OP(=O)(Nc1ccccn1)Oc1ccccc1C,inactive: -8.48%
2,O=C(NC1CCS(=O)(=O)C1)NP(=S)(Oc1ccccc1)Oc1ccccc1 (stereo not given),inactive: -1.63%
3,CCNC(=S)/N=C(\N)N[N+](=O)[O-],inactive: -1.64%
4,CCOC(=O)NC(Sc1ccccc1)C(Cl)(Cl)Cl (stereo not given),inactive: 1.51%
5,Cc1ccc(NP(=O)(Oc2cccc(C)c2)Oc2cccc(C)c2)nc1,inactive: 5.07%
6,c1ccc(-c2nn[nH]n2)c(-c2nn[nH]n2)c1,inactive: 5.13%
7,O=[N+]([O-])c1ncn(CCn2cnc([N+](=O)[O-])n2)n1,inactive: -2.69%
8,CC(=O)NC(SC(=S)N(C)C)C(Cl)(Cl)Cl (stereo not given),inactive: 0.507%
9,O=[N+]([O-])c1ccc(O)c(/C=N/Nc2ccc([N+](=O)[O-])cc2[N+](=O)[O-])c1,inactive: -13.5%
10,O=[As](O)(c1ccccc1)c1ccc(O)cc1,inactive: -1.54%
11,C(Cc1nn[nH]n1)Cc1nn[nH]n1,inactive: 1.53%
12,Nc1ccc([As](=O)(O)c2ccc([N+](=O)[O-])cc2)cc1,inactive: 0.26%
13,O=C(OC1CN2CCC1CC2)c1cccc(Cl)c1 (stereo not given),inactive: 0.923%
14,CN(C)C1(CNC(=O)c2ccc(Cl)c(S(N)(=O)=O)c2)CCCCC1,inactive: 1.8%
15,O=P(Nc1ccccn1)(c1ccc(Br)cc1)c1ccc(Br)cc1,inactive: -8.43%
16,C[C@H]1OP(=O)(Oc2ccccc2)[C@H](O)[C@H](O)[C@H]1N=[N+]=[N-] (stereo not given in full),inactive: 0.927%
17,O=P(Nc1nc2ccccc2s1)(c1ccccc1)c1ccccc1,inactive: -1.93%
18,O=P(Nc1nccs1)(c1ccccc1)c1ccccc1,inactive: -0.14%
19,CC(C)C(=O)NC(Sc1ccccc1)C(Cl)(Cl)Cl (stereo not given),inactive: -1.62%
20,c1nnnn1CCn1cnnn1,inactive: 1.33%
